US20100008912A1, “COMBINATION DRUG” (TAKEDA PHARMACEUTICAL COMPANY LIMITED, priority 2006, published 2010)

System: N87 (gastric cancer)
Experiment: Cell growth determination test of combined use, Combination Index, N87
Assay type: cell-based, human
Conditions: combined use with compound A
Protocol: The cell density of the cell suspension was measured by cell counter Sysmex CDA500, and the cell density was adjusted to 4×10^4 cell/mL using the aforementioned medium, which was dispensed to each well of a 96 well multi-well culture plate (Nunc) by 0.15 mL and cultured overnight at 37° C., 5% CO2. […] After culturing at 37° C., 5% CO2 for 5 days, the cells of each well were fixed, stained and subjected to colorimetry. The effect of the combined use was determined by the method of Chou T C, Talalay P Adv.
The effect of combined use was determined by the method of Chou T C, Talalay P Adv.

SMILES: CN(Cc1cnc2nc(N)nc(N)c2n1)c1ccc(C(=O)N[C@@H](CCC(=O)O)C(=O)O)cc1 [methotrexate]
- Combination Index at the time of inhibition of cell growth by 50%: 1.44
